The chains are these.
B1: Linker for activation of T-cells family member 1 (Homo sapiens), O43561 (parent)
chain: MEEAILVPCVLGLLLLPILAMLMALCVHCHRLPGSYDSTSSDSLYPRGIQFKRPHTVAPWPPAYPPVTSYPPLSQPDLLPIPRSPQPLGGSHRTPSSRRDSDGANSVASYENEGASGIRGAQAGWGVWGPSWTRLTPVSLPPEPACEDADEDEDDYHNPGYLVVLPDSTPATSTAAPSAPALSTPGIRDSAFSMESIDDYVNVPESGESAEASLDGSREYVNVSQELHPGAAKTEPAALSSQEAEEVEEEGAPDYENLQELN
partner: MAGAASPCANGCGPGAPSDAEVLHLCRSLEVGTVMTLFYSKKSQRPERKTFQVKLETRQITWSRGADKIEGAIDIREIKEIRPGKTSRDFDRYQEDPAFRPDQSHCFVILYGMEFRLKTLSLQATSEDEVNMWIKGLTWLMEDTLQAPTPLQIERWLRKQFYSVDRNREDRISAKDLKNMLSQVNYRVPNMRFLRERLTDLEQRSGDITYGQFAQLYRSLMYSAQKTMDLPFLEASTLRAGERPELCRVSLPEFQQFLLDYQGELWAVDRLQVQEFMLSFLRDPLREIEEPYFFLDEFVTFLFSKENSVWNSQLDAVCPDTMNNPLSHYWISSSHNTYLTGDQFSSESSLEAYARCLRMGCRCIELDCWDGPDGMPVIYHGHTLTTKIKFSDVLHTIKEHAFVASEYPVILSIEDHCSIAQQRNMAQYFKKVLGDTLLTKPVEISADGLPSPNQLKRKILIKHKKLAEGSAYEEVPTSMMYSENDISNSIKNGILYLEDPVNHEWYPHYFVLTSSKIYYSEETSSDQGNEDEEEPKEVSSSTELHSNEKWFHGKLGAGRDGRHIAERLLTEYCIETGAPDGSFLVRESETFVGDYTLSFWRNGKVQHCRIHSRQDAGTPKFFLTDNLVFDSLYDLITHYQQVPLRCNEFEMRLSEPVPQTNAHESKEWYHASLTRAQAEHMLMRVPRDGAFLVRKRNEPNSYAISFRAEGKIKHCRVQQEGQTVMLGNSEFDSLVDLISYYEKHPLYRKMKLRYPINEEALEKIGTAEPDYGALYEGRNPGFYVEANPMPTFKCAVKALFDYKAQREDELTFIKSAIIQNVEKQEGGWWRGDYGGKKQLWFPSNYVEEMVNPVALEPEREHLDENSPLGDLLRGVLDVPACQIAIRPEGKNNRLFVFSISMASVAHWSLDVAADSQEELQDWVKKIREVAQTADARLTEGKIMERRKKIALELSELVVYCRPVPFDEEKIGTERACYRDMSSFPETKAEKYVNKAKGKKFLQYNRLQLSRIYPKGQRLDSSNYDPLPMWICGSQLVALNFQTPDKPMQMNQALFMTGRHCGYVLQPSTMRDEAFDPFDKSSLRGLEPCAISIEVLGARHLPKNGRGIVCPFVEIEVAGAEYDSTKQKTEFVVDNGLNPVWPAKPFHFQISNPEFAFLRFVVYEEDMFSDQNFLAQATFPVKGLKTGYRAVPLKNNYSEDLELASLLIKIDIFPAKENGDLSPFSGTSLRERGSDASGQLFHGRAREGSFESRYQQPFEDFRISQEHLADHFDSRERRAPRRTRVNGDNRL

In this assay the parent is B1. The conditions noted are these: with plcg1_human PLCG1, P19174.
Turning to MEEAILVPCVLGLLLLPILAMLMALCVHCHRLPGSYDSTSSDSLYPRGIQFKRPHTVAPWPPAYPPVTSYPPLSQPDLLPIPRSPQPLGGSHRTPSSRRDSDGANSVASYENEGASGIRGAQAGWGVWGPSWTRLTPVSLPPEPACEDADEDEDDYHNPGYLVVLPDSTPATSTAAPSAPALSTPGIRDSAFSMESIDDFVNVPESGESAEASLDGSREFVNVSQELHPGAAKTEPAALSSQEAEEVEEEGAPDYENLQELN [Y200F;Y220F], the “effect of a mutation on the interaction” value is given as “decreasing interaction”.

(Values after IntAct's records for PubMed 16938345.)
